Results reported in ChEMBL document CHEMBL1833814, “Discovery of BI 99179, a potent and selective inhibitor of type I fatty acid synthase with central exposure” (Bioorg Med Chem Lett, 2011).

Tested on: Rattus norvegicus
Assay: Ratio of drug level in CSF to brain of Han/Wistar rat at 4 mg/kg, po measured at 2 hrs
Conditions: in vivo

CCC(=O)N[C@H]1CC[C@@H](C(=O)N(C)c2ccc(-c3nc4ccccc4o3)cc2)C1 [BI 99179]
Ratio: 4%
